Measurements taken from patent US20150151011A1, “Preparation of Technetium-99M Tricarbonyl Labeled Glycine Monomer or Oligomer Containing Probes That Have Biomolecules and Its Application as Imaging Complex-Composition” (KOREA ATOMIC ENERGY RESEARCH INSTITUTE, priority 2012, published 2015).

Experiments:
[1] = Micro-SPECT/CT imaging of technetium-99m tricarbonyl glycine complexes in animal model; format: in vivo, ICR mice; conditions: mice, intravenous injection, 37 MBq, FIG. 2
Excerpt: (1) Materials: Carbon monoxide (99.5%) was provided from Daehan Gas (Seoul, Korea) and purified using an oxygen trap before use. Technetium-99m was produced as pertechnetate using Unitech Tc-99m generator (Samyoung Unitech. Co. Ltd., Korea) in 0.9% sodium chloride. glycin, Gly-Gly-Gly (glycine trimer), and Gly-Gly-Gly-Gly-Gly (glycine pentamer) were purchased from Sigma Chemical Co. (St. Louis, USA). (2) Animal test: Female germ-free ICR mice (7 weeks old) were purchased from Orient, Inc. (Seoul, Korea) and acclimated for one week before use in experiments. The mice were maintained at a relative humidity of 50±5% at a temperature of 23±2° C. on a 12-h light-dark cycle, allowed to have access to food and water ad libitum, and acclimated for at least 1 week prior to usage. All animal experiments were conducted after approval by the Institute Animal Care and Use Committee of the Korean Atomic Energy Research Institute.
For Micro-SPECT/CT imaging, mice were scanned using the Inveon small-animal SPECT/CT system equipped with a single pinhole collimator (Siemens Medical Solutions, Knoxville, Tenn., USA). The mice were anesthetized with 2% isoflurane (prone position in a cradle) and intravenously injected with the technetium-99m tricarbonyl at a dose of 37 MBq 30 min before Micro-SPECT imaging. […]

[2] = Octanol-water partition coefficient of technetium-99m tricarbonyl glycines; format: physicochemical; conditions: n-octanol / 0.05 M PBS pH 7.4, measured in triplicate
Procedure: In order to predict the in vivo residence and degradation rate of technetium-99m tricarbonyl glycin complexes, octanol-water partition coefficients were measured in triplicate as follows. To a mixture of 500 μl of nitrogen-purged 0.05 M PBS (phosphate-buffered saline, pH 7.4) and 500 μl of n-octanol was added 10 μl of technetium-99m tricarbonyl glycine, glycine trimer, or glycine pentamer, followed by vortexing for 3 min. Centrifugation at 3,000×g for 5 min in a SORVALL FRESCO centrifuge (Asheville, N.C., USA) gave two distinct phases. From each of the PBS layer and the octanol layer was taken 20 μl which was then measured for radioactivity using a well-type NaI (TI) scintillation detector. The coefficient is calculated according to the following equation.
Log p=log(octanol(cpm)/water(cpm)) <Equation>

technetium-99m tricarbonyl-glycine
clearance from blood ([1]; 30 min before Micro-SPECT imaging): rapid blood clearance
radioactivity in the liver ([1]; SPECT/CT): some radioactivity was detected in the liver
Octanol/Water Partition Coeffi. (Kow logP) [2]: −0.48 ± 0.00
